The results in this text go back to publication PMC9776540, “Therapeutic Potential of a Water-Soluble Silver-Diclofenac Coordination Polymer on 3D Pancreatic Cancer Spheroids” (Journal of Medicinal Chemistry, 2022).

In the data set the test system is PANC-1 cells. The following applies: PANC-1, 1 at IC50, others at molar ratio 1:1:1, 72 h after treatment. Here is the method: MCF7 cell line (human breast adenocarcinoma, morphology: epithelial-like, ATCC: HTB-22), A549 cell […]
keratinocyte, morphology: epidermal, CSL Cell Lines Service GmbH); were cultured in Dulbecco’s Modified Eagle’s Medium (DMEM, Corning) with phenol red, supplemented with 10% fetal bovine serum (FBS) and with 1% streptomycin/penicillin. […]
from metastatic site: brain, ATCC: HTB-81) and MCR-5 cell line (primary line of human pulmonary […]
10% fetal bovine serum (FBS). Cultures were incubated at 37 °C under a humidified atmosphere containing 5% CO2. Cells were transferred using a solution containing 0.05% trypsin and 0.5 mM EDTA.
All media and other ingredients were purchased from ALAB, Poland. […]
Acridine Orange (OA) and Propidium Iodide PI Staining
AO is a nucleic acid-binding fluorophore that is cell membrane permeable and suitable for selective staining of nucleated living cells. PI is a nucleic acid-binding dye that is impermeable to live cells and suitable for staining dead or dying nucleated cells. All live, nucleated cells fluoresce green due to AO, and dead, nucleated cells are stained with both AO and PI and fluoresce red. For analysis of 1-induced

Take `O=[N+]([O-])[O-].[Ag+]` [AgNO3, silver(I) nitrate]: the “cytotoxicity seen by AO/PI staining” value is “moderate cytotoxic effect”.
